Experimental data published in US20250340608A1 (PROTAGONIST THERAPEUTICS, published 2025).

T1: human ferroportin (SLC40A1) fused in frame with GFP, stably expressed in HEK293 cells (human, UniProt Q9NP59 1-571)
T1 sequence (looked up): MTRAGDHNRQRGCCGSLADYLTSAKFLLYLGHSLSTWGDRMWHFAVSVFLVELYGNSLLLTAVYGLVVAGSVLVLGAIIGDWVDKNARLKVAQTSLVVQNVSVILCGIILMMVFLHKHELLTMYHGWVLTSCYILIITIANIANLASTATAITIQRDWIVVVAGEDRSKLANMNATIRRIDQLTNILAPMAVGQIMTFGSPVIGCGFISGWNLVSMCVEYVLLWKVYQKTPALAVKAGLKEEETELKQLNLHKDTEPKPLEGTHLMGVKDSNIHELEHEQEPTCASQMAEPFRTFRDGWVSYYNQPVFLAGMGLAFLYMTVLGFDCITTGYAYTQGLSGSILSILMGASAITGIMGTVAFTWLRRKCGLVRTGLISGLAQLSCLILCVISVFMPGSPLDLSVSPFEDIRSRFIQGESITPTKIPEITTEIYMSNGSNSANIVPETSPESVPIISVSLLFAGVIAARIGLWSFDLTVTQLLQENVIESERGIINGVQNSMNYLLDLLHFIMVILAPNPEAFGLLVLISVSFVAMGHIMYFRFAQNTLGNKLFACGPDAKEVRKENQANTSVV

T2: human ferroportin (SLC40A1) fused in frame with GFP, stably expressed on HEK293 cells (human, UniProt Q9NP59 1-571)
T2 sequence (looked up): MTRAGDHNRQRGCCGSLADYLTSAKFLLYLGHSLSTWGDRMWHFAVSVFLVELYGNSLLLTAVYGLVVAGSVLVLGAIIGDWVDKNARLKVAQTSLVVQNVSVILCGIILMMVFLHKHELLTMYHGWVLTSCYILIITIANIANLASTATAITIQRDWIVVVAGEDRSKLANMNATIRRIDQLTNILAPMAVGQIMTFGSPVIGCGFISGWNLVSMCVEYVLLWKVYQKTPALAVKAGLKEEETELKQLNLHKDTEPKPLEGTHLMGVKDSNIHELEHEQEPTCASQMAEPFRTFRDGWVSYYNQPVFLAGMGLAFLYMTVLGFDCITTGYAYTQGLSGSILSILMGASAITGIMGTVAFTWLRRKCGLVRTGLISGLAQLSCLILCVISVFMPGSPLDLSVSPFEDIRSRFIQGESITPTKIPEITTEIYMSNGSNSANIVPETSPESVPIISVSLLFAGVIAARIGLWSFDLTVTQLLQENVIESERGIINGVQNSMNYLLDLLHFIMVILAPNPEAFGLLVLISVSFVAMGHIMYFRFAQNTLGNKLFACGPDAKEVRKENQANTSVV


Legend:
[1] = molecular target: T1, human ferroportin (SLC40A1) fused in …; assay: cell-based or functional assay
[2] = molecular target: T2, human ferroportin (SLC40A1) fused in …; assay: cell-based or functional assay

| EC50 (nM) (n > 3) [1] | EC50 (nM), ferroportin degradation (loss of ferroportin-GFP fluorescence) [2] [nM] | Binder |
| --- | --- | --- |
| 15 | – | DTHFPCIKFK (N-terminal isovaleric acid; DIG linker through K10; C-terminal NH2) [Compound 346] |
| – | 169 | DTHFPICIFCCGCCHRSKCGMCCKT (four disulfide bridges: C(1)-C(1), C(2)-C(2), C(3)-C(3), C(4)-C(4); free N-terminus (Hy-), C-terminal -OH) [Hepcidin (Hy-DTHFPIC(1)IFC(2)C(3)GC(2)C(4)HRSKC(3)GMC(4)C(1)KT-OH)] |
